The source of these data is ChEMBL document CHEMBL1125016.

By UniProt entry, the sequences of proteins in these tests, tags left out. Where a name states a change or a piece, a line headed by the entry shows the natural chain unless it says otherwise.
UniProt P41144: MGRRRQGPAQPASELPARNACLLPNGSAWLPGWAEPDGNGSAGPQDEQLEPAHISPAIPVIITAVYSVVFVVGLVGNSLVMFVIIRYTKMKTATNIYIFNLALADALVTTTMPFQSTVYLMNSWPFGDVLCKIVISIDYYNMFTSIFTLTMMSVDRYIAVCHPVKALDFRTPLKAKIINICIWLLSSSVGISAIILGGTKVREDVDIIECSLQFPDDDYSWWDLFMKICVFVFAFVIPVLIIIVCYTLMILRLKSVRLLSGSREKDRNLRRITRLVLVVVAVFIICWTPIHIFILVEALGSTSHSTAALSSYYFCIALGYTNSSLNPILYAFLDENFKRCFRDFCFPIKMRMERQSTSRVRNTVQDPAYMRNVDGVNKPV
UniProt P61169, whole entry, looked up: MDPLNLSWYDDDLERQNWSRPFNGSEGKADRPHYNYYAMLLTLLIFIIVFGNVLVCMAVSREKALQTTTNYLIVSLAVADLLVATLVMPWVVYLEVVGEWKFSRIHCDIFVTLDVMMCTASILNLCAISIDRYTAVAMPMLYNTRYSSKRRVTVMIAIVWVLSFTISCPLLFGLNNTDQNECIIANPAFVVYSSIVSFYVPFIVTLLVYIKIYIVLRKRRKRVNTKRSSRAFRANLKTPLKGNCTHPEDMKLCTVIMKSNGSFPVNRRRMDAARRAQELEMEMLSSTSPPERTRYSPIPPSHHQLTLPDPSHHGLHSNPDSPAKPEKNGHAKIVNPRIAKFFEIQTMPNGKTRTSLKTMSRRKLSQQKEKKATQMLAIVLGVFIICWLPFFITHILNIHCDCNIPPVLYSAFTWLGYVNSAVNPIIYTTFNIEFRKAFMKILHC

Test [1] addresses T1, Kappa-type opioid receptor (Cavia porcellus, UniProt P41144). As to the kind of experiment: Affinity of compound towards Opioid receptor kappa 1 was determined in presence of [3H]U-69593. radioligand.
For test [2], the target named is T1, Kappa-type opioid receptor. As to the kind of experiment: Affinity of compound towards Opioid receptor kappa 1 was determined in presence of [3H]bremazocine radioligand.
Test [3] has as its target T2, D(2) dopamine receptor (Rattus norvegicus, UniProt P61169). Kind of test: Affinity of compound towards Dopamine receptor D2 was determined in presence of [3H](-)-sulpiride radioligand.
The target of test [4] is T1, Kappa-type opioid receptor. As to the kind of experiment: Affinity of compound towards Opioid receptor kappa 1 labeled with [3H]bremazocine.
Test [5] addresses T1, Kappa-type opioid receptor. Kind of test: Affinity of compound towards Opioid receptor kappa 1 was determined in presence of [3H]U-69593 radioligand.
Test [6] has as its target T2, D(2) dopamine receptor. Kind of test: Affinity of compound towards dopamine-D2 receptor was determined in presence of [3H](-)-sulpiride radioligand.

For orientation: Ki means the equilibrium dissociation constant of an inhibitor or competing ligand from its target. As to `CN(CCc1ccc(Cl)c(Cl)c1)[C@@H]1CCCC[C@@H]1N1CCCC1`, the Ki in test [1] came to 3.79 µM.

With `CN(C(=O)Cc1cc(Cl)c(Cl)cc1N)[C@@H]1CCCC[C@@H]1N1CCCC1`, the Ki in test [2] was determined as 0.523 µM; on D(2) dopamine receptor [3], 1.54 µM.

On to `CN(C(=O)Cc1ccc2ccccc2c1)[C@H]1CCCC[C@H]1N1CCCC1`, for which, in test [1], the inhibition constant (Ki) came out at 1.67 µM.

Take `CN(C(=O)Cc1ccc2c(c1)OCO2)[C@H]1CCCC[C@H]1N1CCCC1`: the inhibition constant (Ki) in test [4] worked out at 6.99 µM; in test [1] it was 3.63 µM.

In the case of `CN(C(=O)Cc1ccc2ccccc2c1)[C@@H]1CCCC[C@@H]1N1CCCC1`, the Ki worked out at 2.21 µM in test [5], 1.44 µM in test [2] and 7.35 µM on D(2) dopamine receptor [6].

For the compound `CN(C(=O)Cc1ccc2ccccc2c1)C1CCCCC1N1CCCC1` (stereo not given), the Ki in test [1] is 1.62 µM.
